# Experimental data published in patent publication US8187832B2, “Method of detecting an amount of a cholinesterase inhibitor in a sample” (dated 2012).
# Protein sequences, listed by entry. Tags and fused reporters are not part of them. Residues count along the entry.
# UniProt O42275, 24-633 limits assumed: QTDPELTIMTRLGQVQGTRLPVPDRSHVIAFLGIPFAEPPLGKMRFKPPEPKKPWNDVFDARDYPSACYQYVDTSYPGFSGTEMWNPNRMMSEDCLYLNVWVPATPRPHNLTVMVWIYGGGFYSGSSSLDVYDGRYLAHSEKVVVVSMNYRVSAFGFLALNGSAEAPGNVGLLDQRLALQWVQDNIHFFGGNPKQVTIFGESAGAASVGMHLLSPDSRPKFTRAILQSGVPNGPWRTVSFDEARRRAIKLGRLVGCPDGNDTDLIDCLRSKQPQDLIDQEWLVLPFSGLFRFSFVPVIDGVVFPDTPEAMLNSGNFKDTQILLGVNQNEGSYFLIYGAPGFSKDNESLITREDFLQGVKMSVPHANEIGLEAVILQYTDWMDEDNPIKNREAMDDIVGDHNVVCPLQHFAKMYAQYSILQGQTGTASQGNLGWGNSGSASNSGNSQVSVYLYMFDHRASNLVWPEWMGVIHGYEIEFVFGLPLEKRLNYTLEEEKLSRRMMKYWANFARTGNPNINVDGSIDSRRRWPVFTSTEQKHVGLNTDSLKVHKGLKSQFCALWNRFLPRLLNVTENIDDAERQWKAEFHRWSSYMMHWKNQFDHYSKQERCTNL
# Biological target: Immobilised AChE (ImmAChE) (Electrophorus electricus, UniProt O42275)
# Test: Current test response to sarin in human blood in the presence of pyridostigmine or 2-pralidoxime chloride
# Details: oxime reactivator as treatment drug
substance,measurement,value
Pyridine-2-aldoxime methochloride,whole blood concentration up to which detection of OP cholinesterase inhibitors is permitted,up to 0.266 mM
